Measurements from patent US20220025036A1, “USE OF IL-1BETA BINDING ANTIBODIES” (NOVARTIS AG, priority 2018, published 2022).

Biological target: IL-1β (Homo sapiens, UniProt P01584)
Test: In vitro potency (IC50) of IL-1β antibodies
Format: biochemical

gevokizumab: high-affinity, humanized monoclonal antibody of the IgG2 isotype to interleukin-1β (SEQ ID NO:19 and 20)
IC50: 2 to 5 pM | in vitro potency compared to canakinumab (higher potency): ~10 times
